Laboratory results from patent publication EP4075981B1, “COMPOSITION FOR LICE CONTROL” (dated 2026).

Columns and labels:
[1] = tested on: sheep body lice (Bovicola ovis); test: Example 1: efficacy of a single oral dose against lice on sheep with 9 months wool growth; conditions: for Percentage Efficacy (lice counts, Henderson-Tilton): diazinon resistant lice, by 13 days post-treatment, maintained until Day 140; for viable lice eggs: from Day 41 until last count on Day 140
[2] = Pharmacokinetic study in sheep off-shears (topical, oral and subcutaneous administration); conditions: 3 mg/kg bw
[3] = tested on: sheep body lice (Bovicola ovis); test: Example 2: efficacy of a single oral dose against lice on sheep off-shears
[4] = dogs, oral administration, 1 mg/kg bw; cited from earlier work
[5] = tested on: sheep body lice (Bovicola ovis); test: Example 4: persistency determination (lice challenge after a single oral dose); conditions: for lice or viable lice eggs found on the sheep: 2 months wool, after either challenge (Day 0-7 or Day 7-14 post-treatment), 14, 21, 42 and 84 days ± 1 day post-challenge
[6] = tested on: sheep body lice (Bovicola ovis); test: Example 3: efficacy of a single oral dose against lice on long wool sheep; conditions: for efficacy (lice counts): by 14 days post-treatment at each wool length (3, 6 and 9 months of wool growth); for viable lice eggs: from Day 42 at the 6- and 9-months wool lengths

Cc1cc(C2=NOC(c3cc(Cl)cc(Cl)c3)(C(F)(F)F)C2)ccc1C(=O)NCC(=O)NCC(F)(F)F (centres unmarked)
Percentage Efficacy (lice counts, Henderson-Tilton) ([1]; 2 mg/kg once orally): 100% | viable lice eggs ([1]; 2 mg/kg once orally): no viable lice eggs detected | Percentage Efficacy (lice counts, Henderson-Tilton) ([1]; 3 mg/kg once orally): 100% | viable lice eggs ([1]; 3 mg/kg once orally): no viable lice eggs detected | AUC ([2]; Group 3 (oral), compared with topical and SC): Higher | fluralaner levels in sheep blood ([2]; oral, by day 12 post-dosing): below 1 ng/mL | efficacy (lice counts) ([3]; 0.5 mg/kg once orally, 7 days post-treatment): above 99% | efficacy (lice counts) ([3]; 0.5 mg/kg once orally, by 14 days post-treatment until final count on Day 112): 100% | viable lice eggs ([3]; 0.5 mg/kg once orally, from Day 21 until final count on Day 112): no viable lice eggs detected | efficacy (lice counts) ([3]; 1.0 mg/kg once orally, by 7 days post-treatment): 100% | efficacy (lice counts) ([3]; 1.0 mg/kg once orally, by 14 days post-treatment until final count on Day 112): 100% | viable lice eggs ([3]; 1.0 mg/kg once orally, from Day 21 until final count on Day 112): no viable lice eggs detected | efficacy (lice counts) ([3]; 1.5 mg/kg once orally, by 7 days post-treatment): 100% | efficacy (lice counts) ([3]; 1.5 mg/kg once orally, by 14 days post-treatment until final count on Day 112): 100% | viable lice eggs ([3]; 1.5 mg/kg once orally, from Day 21 until final count on Day 112): no viable lice eggs detected | efficacy (lice counts) ([3]; 2.0 mg/kg once orally, by 7 days post-treatment): 100% | efficacy (lice counts) ([3]; 2.0 mg/kg once orally, by 14 days post-treatment until final count on Day 112): 100% | viable lice eggs ([3]; 2.0 mg/kg once orally, from Day 14 until final count on Day 112): no viable lice eggs detected | viable lice eggs ([3]; 2.0 mg/kg once orally, from Day 21 until final count on Day 112): no viable lice eggs detected | effective blood levels obtained for [4]: at least 56 days | lice or viable lice eggs found on the sheep ([5]; 1.5 mg/kg once orally): No lice or viable lice eggs were found | lice or viable lice eggs found on the sheep ([5]; 2.0 mg/kg once orally): No lice or viable lice eggs were found | no lice infestation is established on the treated sheep for ([5]; one oral treatment, challenged with lice within 2 weeks after administration (summary of Example 4)): more than 12 weeks | efficacy (lice counts) ([6]; 1.5 mg/kg once orally): 100% | viable lice eggs ([6]; 1.5 mg/kg once orally): no viable lice eggs detected | efficacy (lice counts) ([6]; 2.0 mg/kg once orally): 100% | viable lice eggs ([6]; 2.0 mg/kg once orally): no viable lice eggs detected

Cc1cc(C2=NO[C@@](c3cc(Cl)cc(Cl)c3)(C(F)(F)F)C2)ccc1C(=O)NCC(=O)NCC(F)(F)F
peak of mean S-fluralaner plasma concentration ([2]; oral (Group 3)): ca. 100 ng/mL | concentration of all sheep/individuals ([2]; oral, by 21 days post-dosing): below the LLOQ
